Ab-91 heavy chain CDR variants: yeast mating affinities

All variants were tested on one target, the spike HR2 peptide PDVDLGDISGINAS (SARS-CoV-2).

The variants keep the light chain, the linker and the frameworks of Ab-91 (scFv order VL, a (GGGGS)3 linker, VH).
VL: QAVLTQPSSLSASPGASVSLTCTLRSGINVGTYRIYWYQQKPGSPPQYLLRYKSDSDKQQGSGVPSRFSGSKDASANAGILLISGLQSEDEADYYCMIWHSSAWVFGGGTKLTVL
VH: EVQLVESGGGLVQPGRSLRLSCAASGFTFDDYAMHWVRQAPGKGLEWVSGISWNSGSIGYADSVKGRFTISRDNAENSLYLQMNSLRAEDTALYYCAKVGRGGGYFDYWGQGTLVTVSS

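Phage display of a naive human antibody library on the peptide gave the parent. Variants in AAYL51 differ from the parent at up to three CDR positions; double and triple changes were sampled at random. The scFvs were displayed on barcoded MATa yeast, the peptide on MATalpha yeast. Pairs that bind mate more often; barcode pairs of the diploids are counted by sequencing. The ratio of observed to expected reads was calibrated, replicate by replicate, on BCL2-family standards whose Kd was known from biolayer interferometry. There are three technical replicates.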

Variants are written as CDR1, CDR2 and CDR3 of the heavy chain (limits as in the source). Parent: GFTFDDYAMH, GISWNSGSIGYADSVK, VGRGGGYFDY. This list gathers variants with a substitution at F106 (VH, numbered from residue 1). Values are apparent Kd, the geometric mean of the replicates that gave a signal; lower means stronger binding. "nd" means that the variant was in the library but no mating with the target was seen in any replicate; the authors take this as a sign of poor binding, and no number exists. As a blank, each scFv also met three strains without target: over library AAYL51, 21% of these pairings were detected, typically at 34 µM and seldom below 1.8 µM. The control count says in how many pairings with the empty strains this scFv gave a signal.

Variant GFTFDLYAMG | GISWNSGSIGYADSVK | VGRGGGYPDY showed nd (0 of 3 replicates; controls 0 of 9).
Variant GFTFDDYAMH | GISWNFGSIEYADSVK | VGRGGGYGDY showed 20 µM (1 of 3 replicates; controls 3 of 9).
Variant GFTFADYAFH | GISWNSGSIGYADSVK | VGRGGGYLDY showed 31 µM (3 of 3 replicates; controls 4 of 9).
Variant GFTFLDYAMH | GISWGSGSIGYADSVK | VGRGGGYNDY showed 25 µM (1 of 3 replicates; controls 1 of 9).
Variant GFTFDDYAMH | GISWNSGSIGYADSVK | VGRGGIYQDY showed nd (0 of 3 replicates; controls 0 of 9).
Variant GFTLDDYAMH | GISWNSGSIGYADSVK | VGRGGGYCDE showed 61 µM (1 of 3 replicates; controls 0 of 9).
Variant GYTFDDYAMH | GISWNSGSWGYADSVK | VGRGGGYEDY showed 63 µM (1 of 3 replicates; controls 1 of 9).
Variant GFTFDDYAME | GISWSSGSIGYADSVK | VGRGGGYVDY showed nd (0 of 3 replicates; controls 1 of 9).
Variant GFTFDDYAMH | GRSWNSGSIGYADSVK | VGRGGGHPDY showed 230 µM (1 of 3 replicates; controls 0 of 9).
Variant GFTFDDYAMH | GISWNSGSIGGAKSVK | VGRGGGYQDY showed nd (0 of 3 replicates; controls 0 of 9).
Variant GFTFDDYAMH | GISGNSGSPGYADSVK | VGRGGGYMDY showed 380 µM (2 of 3 replicates; controls 3 of 9).
Variant GFTFDDYAMH | GISWNSGSIGYADSVL | VGRGGGYYDY showed 1.3 µM (3 of 3 replicates; controls 3 of 9).
Variant GFDFDDYAMH | GISWNSGSIGYADSVK | VGSGGGYDDY showed 130 µM (1 of 3 replicates; controls 6 of 9).
Variant GFTFDDYAMH | GISWNSGNIGYADSVK | VGRGGGYNDY showed 4.2 µM (2 of 3 replicates; controls 2 of 9).
Variant GFTFDDYAMH | GISWNSGSIGYPDSVK | VGRGGGYHDY showed 580 µM (1 of 3 replicates; controls 3 of 9).
Variant GFTFDDYAMH | GISWNSGSIGYADSDK | VGRGGGYDDY showed nd (0 of 3 replicates; controls 2 of 9).
Variant GFTFDDYAMT | GISWNSGSITYADSVK | VGRGGGYDDY showed nd (0 of 3 replicates; controls 0 of 9).
Variant GFTFDDYAMH | GISWNSGSIGYADSVK | VGRGVVYSDY showed 130 nM (3 of 3 replicates; controls 4 of 9).
Variant GFTFDDYAMH | GIWWNSGSIGYADSVK | VGCGGGYHDY showed nd (0 of 3 replicates; controls 1 of 9).
Variant GFTFDGYAMH | GISWNSGSIGYADSVK | VGRGGGRSDY showed nd (0 of 3 replicates; controls 2 of 9).
Variant GFTFDDYHMH | GISWNSGSLGYADSVK | VGRGGGYYDY showed 31 µM (1 of 3 replicates; controls 0 of 9).
Variant GHTFDDYAMH | GISWNSGSIGYADSVC | VGRGGGYIDY showed nd (0 of 3 replicates; controls 0 of 9).
Variant GFTFDDEAMH | GISWNSGSIHYADSVK | VGRGGGYSDY showed 130 µM (2 of 3 replicates; controls 4 of 9).
Variant GFTFDDYAMH | GISSNSGSHGYADSVK | VGRGGGYWDY showed 460 nM (3 of 3 replicates; controls 1 of 9).
Variant GFTFDDYAIM | GISWNSGSIGYADSVK | VGRGGGYSDY showed 100 µM (1 of 3 replicates; controls 6 of 9).
Variant GFTFSDYAMH | GISWNSGSLGYADSVK | VGRGGGYIDY showed 84 nM (3 of 3 replicates; controls 6 of 9).
Variant GFTFDDYCMH | GISWNSGSIGYADSVK | VGRKGGYNDY showed 10 µM (2 of 3 replicates; controls 3 of 9).
Variant GFTFDDYAMH | GISWNSGSIVYADSVK | VGRTGGYDDY showed 260 µM (3 of 3 replicates; controls 5 of 9).
Variant GFTFDDYAMH | GISWQEGSIGYADSVK | VGRGGGYKDY showed 24 µM (1 of 3 replicates; controls 0 of 9).
Variant GFTFDDYAMH | GISNNSGSIRYADSVK | VGRGGGYRDY showed 90 µM (2 of 3 replicates; controls 3 of 9).
Variant GFTFDDYAMH | VISWNSGSIGYADSVK | VGRGGGYNDY showed 79 µM (1 of 3 replicates; controls 6 of 9).
Variant GFTFDLYAMH | GISWESGSIGYADSVK | VGRGGGYCDY showed nd (0 of 3 replicates; controls 1 of 9).
Variant GFTFDDYAMH | GQSWTSGSIGYADSVK | VGRGGGYDDY showed nd (0 of 3 replicates; controls 0 of 9).
Variant GFTFDDYAMH | GINWNSGSIGYADSVK | VGRSGGYMDY showed 70 µM (3 of 3 replicates; controls 9 of 9).
Variant GFEFDDYAMN | GISWNSGSIGYADSVK | VGRGGGYTDY showed nd (0 of 3 replicates; controls 1 of 9).
Variant GFTFDDYAMH | GIIWNSVSIGYADSVK | VGRGGGYTDY showed nd (0 of 3 replicates; controls 1 of 9).
Variant GFTFDDYAMH | GIMWNSGSIGYADSVK | VGRGGIYRDY showed nd (0 of 3 replicates; controls 1 of 9).
Variant GFTFTDYAMH | GISWNSGSIGYADSVK | VGRGGGYGDF showed 68 nM (3 of 3 replicates; controls 3 of 9).
Variant GFTFDDYAMH | GISWNSGSDGYADSVT | VGRGGGYLDY showed 26 nM (3 of 3 replicates; controls 1 of 9).
Variant GFTFDDYAMH | GISRNSGSIGYADSVK | VGRGGGYVDY showed 14 µM (2 of 3 replicates; controls 3 of 9).
Variant GFTFDDYAMH | GVSWNSGSIGYADSVK | VGVGGGYCDY showed 60 µM (3 of 3 replicates; controls 6 of 9).
Variant GFTFDDYAMH | GISWNSGTIGYADSVK | VGRGGGYGDC showed nd (0 of 3 replicates; controls 0 of 9).
Variant VFTFDDYAMH | GISWNSGSIGYADSVK | VGRGGGINDY showed nd (0 of 3 replicates; controls 0 of 9).
Variant GFTFDDYAMH | GISWNSGSIGIADSVK | VGRLGGYPDY showed 25 µM (2 of 3 replicates; controls 5 of 9).
Variant GFTFYDYAMH | GISWNSGSIGYADSVK | VGRGGGYSDY showed 17 µM (1 of 3 replicates; controls 2 of 9).
Variant GFTFDDCAMH | GISWNSGSIGYADSVK | VGRGGHYYDY showed 17 µM (1 of 3 replicates; controls 0 of 9).
Variant GFTFDDYSMH | GISWNSGSIGYADSVK | VGLGGGYVDY showed 5.5 nM (3 of 3 replicates; controls 5 of 9).
Variant GFTFDDYAMQ | GISWNSGSIGYADSVK | KGRGGGYEDY showed 180 µM (2 of 3 replicates; controls 7 of 9).
Variant GFTFDDYAMH | GISWNSGSIGYSDSVK | VGRGGGYVDY showed 13 nM (3 of 3 replicates; controls 0 of 9).
Variant GFTFDDYAMH | GDSWNSGAIGYADSVK | VGRGGGYTDY showed 580 µM (1 of 3 replicates; controls 1 of 9).
Variant GFTFDDYMMH | GISWYSGSIGYADSVK | VGRGGGYGDY showed 18 µM (2 of 3 replicates; controls 0 of 9).
Variant GFTFFDYAMH | GISWNAGSIGYADSVK | VGRGGGYRDY showed 95 µM (3 of 3 replicates; controls 7 of 9).

Extract of 6 entries:

{"CDR-H1": "GFTFDDEAMH", "CDR-H2": "GISWNSGSIHYADSVK", "CDR-H3": "VGRGGGYSDY", "Kd (apparent)": "130 µM", "detected": "2/3", "control signals": "4/9"}
{"CDR-H1": "GFTFDGYAMH", "CDR-H2": "GISWNSGSIGYADSVK", "CDR-H3": "VGRGGGRSDY", "Kd (apparent)": "nd", "detected": "0/3", "control signals": "2/9"}
{"CDR-H1": "GFTLDDYAMH", "CDR-H2": "GISWNSGSIGYADSVK", "CDR-H3": "VGRGGGYCDE", "Kd (apparent)": "61 µM", "detected": "1/3", "control signals": "0/9"}
{"CDR-H1": "GFTFDDYAMH", "CDR-H2": "GISNNSGSIRYADSVK", "CDR-H3": "VGRGGGYRDY", "Kd (apparent)": "90 µM", "detected": "2/3", "control signals": "3/9"}
{"CDR-H1": "GFTFDDYAIM", "CDR-H2": "GISWNSGSIGYADSVK", "CDR-H3": "VGRGGGYSDY", "Kd (apparent)": "100 µM", "detected": "1/3", "control signals": "6/9"}
{"CDR-H1": "GFTFLDYAMH", "CDR-H2": "GISWGSGSIGYADSVK", "CDR-H3": "VGRGGGYNDY", "Kd (apparent)": "25 µM", "detected": "1/3", "control signals": "1/9"}

Data: MIT Lincoln Laboratory AlphaSeq set, Engelhart et al. 2022, doi:10.1038/s41597-022-01779-4, as distributed in FLAb.